Like-named read-outs stand apart in the source and are kept apart here.
Experiments:
[1] = Oral gavage PK study, plasma d-amphetamine by ELISA, Lys-Amp vs hArg-Amp (Example 7); conditions: […] d-amphetamine freebase equivalent, n=5, released d-amphetamine in plasma
[2] = Oral PK study Lys-Amp, hArg-Amp, Orn-Amp, Cit-Amp (Example 9); conditions: in words
[3] = Average results of 4 oral PK studies, Lys-Amp vs hArg-Amp (Example 7); conditions: average of 4 oral studies, n=20 per compound; released d-amphetamine
[4] = oral, n=5; released d-amphetamine in plasma

C[C@@H](Cc1ccccc1)NC(=O)[C@@H](N)CCCCN=C(N)N.Cl.Cl [hArg-Amp, l-homoarginine-d-amphetamine Dihydrochloride]
Tmax [1]: 4 h
Tmax compared to Lys-Amp [2]: significantly shifted the Tmax
Tmax [3]: 4 h
Tmax [4]: 4 h
